Target data for 4 molecules are collected here from patent US11773129B2, “Methods of preventing or treating atherosclerosis with inhibitors of specific isoenzymes of human neuraminidase” (THE GOVERNORS OF THE UNIVERSITY OF ALBERTA, priority 2017, dated 2023).

This assay has as its system NEU1, NEU2, NEU3, NEU4. Description: Isoenzyme specificity/selectivity from 4MU-NANA IC50 across the four human neuraminidases. Conditions: isoenzyme(s) the compound is specific for; dual (bispecific) when ratio of IC50 is about 3 or less. Format: biochemical.
Regarding `[N-]=[N+]=NCC(=O)N[C@@H]1C(O)C=C(C(=O)O)OC1C(O)C(O)CO` (stereo partly drawn) [compound 40, 5-(N-2-azidoacetyl)-2,3,5-trideoxy-D-glycero-D-galacto-2-nonulopyranosonic acid], the Target result was “NEU3/ NEU4”.
On to `CCCC(=O)NCC(O)C(O)C1OC(C(=O)O)=CC(O)[C@H]1NC(C)=O` (stereo partly drawn) [compound 49, 5-Acetamido-9-butyramido-2,6-anhydro-3,5-dideoxy-D-glycero-D-galacto-non-2-enonic acid], for which the Target result is “NEU1”.
On to `CCCCC(=O)NCC(O)C(O)C1OC(C(=O)O)=CC(O)[C@H]1NC(C)=O` (stereo partly shown) [compound 50, C9-BA-DANA], for which the Target entry is reported as “NEU1”.
Take `CC(=O)N[C@@H]1C(O)C=C(C(=O)O)OC1C(O)C(O)CNC(=O)CC(C)C` (stereo partly drawn) [compound 54, 5-Acetamido-9-(3-methylbutanamido)-2,6-anhydro-3,5-dideoxy-D-glycero-D-galacto-non-2-enonic acid]: the Target entry is listed as “NEU1”.
